Patent US20090099029A1, “Methods and substrates for conducting assays” (Invitrogen Corporation, priority 2005, published 2009)

B1: ERBB4 (protein)
chain: RRKSIKKKRALRRFLETELVEPLTPSGTAPNQAQLRILKETELKRVKVLGSGAFGTVYKGIWVPEGETVKIPVAIKILNETTGPKANVEFMDEALIMASMDHPHLVRLLGVCLSPTIQLVTQLMPHGCLLEYVHEHKDNIGSQLLLNWCVQIAKGMMYLEERRLVHRDLAARNVLVKSPNHVKITDFGLARLLEGDEKEYNADGGKMPIKWMALECIHYRKFTHQSDVWSYGVTIWELMTFGGKPYDGIPTREIPDLLEKGERLPQPPICTIDVYMVMVKCWMIDADSRPKFKELAAEFSRMARDPQRYLVIQGDDRMKLPSPNDSKFFQNLLDEEDLEDMMDAEEYLVPQAFNIPPPIYTSRARIDSNRSEIGHSPPPAYTPMSGNQFVYRDGGFAAEQGVSVPYRAPTSTIPEAPVAQGATAEIFDDSCCNGTLRKPVAPHVQEDSSTQRYSADPTVFAPERSPRGELDEEGYMTPMRDKPKQEYLNPVEENPFVSRRKNGDLQALDNPEYHNASNGPPKAEDEYVNEPLYLNTFANTLGKAEYLKNNILSMPEKAKKAFDNPDYWNHSLPPRSTLQHPDYLQEYSTKYFYKQNGRIRPIVAENPEYLSEFSLKPGTVLPPPPYRHRNTVV
modifications: left off: a dimerising Fc or GST
B2: PDK1 (protein)
chain: MARTTSQLYDAVPIQSSVVLCSCPSPSMVRTQTESSTPPGIPGGSRQGPAMDGTAAEPRPGAGSLQHAQPPPQPRKKRPEDFKFGKILGEGSFSTVVLARELATSREYAIKILEKRHIIKENKVPYVTRERDVMSRLDHPFFVKLYFTFQDDEKLYFGLSYAKNGELLKYIRKIGSFDETCTRFYTAEIVSALEYLHGKGIIHRDLKPENILLNEDMHIQITDFGTAKVLSPESKQARANSFVGTAQYVSPELLTEKSACKSSDLWALGCIIYQLVAGLPPFRAGNEYLIFQKIIKLEYDFPEKFFPKARDLVEKLLVLDATKRLGCEEMEGYGPLKAHPFFESVTWENLHQQTPPKLTAYLPAMSEDDEDCYGNYDNLLSQFGCMQVSSSSSSHSLSASDTGLPQRSGSNIEQYIHDLDSNSFELDLQFSEDEKRLLLEKQAGGNPWHQFVENNLILKMGPVDKRKGLFARRRQLLLTEGPHLYYVDPVNKVLKGEIPWSQELRPEAKNFKTFFVHTPNRTYYLMDPSGNAHKWCRKIQEVWRQRYQSHPDAAVQ
modifications: left off: small tags and cut ends

System: kinases of Table 6 on Myelin Basic Protein (MBP)
Assay: Kinase assay using MBP substrate, ProQ Diamond stain (Table 6)
Type: biochemical
Conditions: kinase printed on MBP-coated slide; 20 uM ATP, 30° C.; ProQ Diamond Microarray Stain; graded Strong/Weak/Negative

Molecule | MBP Kinase Activity
B1 | Negative
B2 | Weak
